Assay results from PMC5959751 (Biochemical pharmacology, 2018).

By UniProt entry, the sequences of proteins in these tests, tags left out.
UniProt P0DMS8, whole entry: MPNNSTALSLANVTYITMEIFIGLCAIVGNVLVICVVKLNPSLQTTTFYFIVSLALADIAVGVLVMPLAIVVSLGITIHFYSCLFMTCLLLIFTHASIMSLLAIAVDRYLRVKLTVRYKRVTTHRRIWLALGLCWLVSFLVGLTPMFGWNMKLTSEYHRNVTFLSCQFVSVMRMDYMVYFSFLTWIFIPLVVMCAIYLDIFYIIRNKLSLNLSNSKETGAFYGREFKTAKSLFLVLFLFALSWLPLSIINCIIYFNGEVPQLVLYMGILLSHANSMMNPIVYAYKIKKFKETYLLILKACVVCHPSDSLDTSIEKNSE

Target: hA3 receptor (Homo sapiens, UniProt P0DMS8)
Assay: Radioligand equilibrium displacement assay with [3H]PSB-11 on CHOhA3 membranes
Type: binding
Settings: no GTP; displacement curves

CNC(=O)[C@H]1O[C@@H](n2cnc3c(NCc4cccc(I)c4)nc(Cl)nc32)[C@H](O)[C@@H]1O [2-Cl-IB-MECA, 2-chloro-N^6-(3-iodobenzyl)-adenosine-5′-N-methyluronamide, reference compound]
Hill Slope: -0.85 ± 0.21 ^ns
